Earlier results as cited in patent US20160030582A1, “ITRACONAZOLE COMPOSITIONS AND DOSAGE FORMS, AND METHODS OF USING THE SAME” (MAYNE PHARMA INTERNATIONAL PTY. LTD., priority 2012, published 2016).

Conditions: in vivo

SMILES: CC(O)C(C)n1ncn(-c2ccc(N3CCN(c4ccc(OCC5COC(Cn6cncn6)(c6ccc(Cl)cc6Cl)O5)cc4)CC3)cc2)c1=O (centres unmarked) [hydroxyitraconazole]
- expected apparent plasma terminal elimination half-life (t½): 7 h
- elimination half life (200 mg): 11.5 h
